Laboratory results as given in ChEMBL document CHEMBL1153941, “Synthesis, molecular modeling, and selective inhibitory activity against human monoamine oxidases of 3-carboxamido-7-substituted coumarins” (J Med Chem, 2009).

Amino acid sequences for entries named in this document (tags omitted).
UniProt P27338, whole entry: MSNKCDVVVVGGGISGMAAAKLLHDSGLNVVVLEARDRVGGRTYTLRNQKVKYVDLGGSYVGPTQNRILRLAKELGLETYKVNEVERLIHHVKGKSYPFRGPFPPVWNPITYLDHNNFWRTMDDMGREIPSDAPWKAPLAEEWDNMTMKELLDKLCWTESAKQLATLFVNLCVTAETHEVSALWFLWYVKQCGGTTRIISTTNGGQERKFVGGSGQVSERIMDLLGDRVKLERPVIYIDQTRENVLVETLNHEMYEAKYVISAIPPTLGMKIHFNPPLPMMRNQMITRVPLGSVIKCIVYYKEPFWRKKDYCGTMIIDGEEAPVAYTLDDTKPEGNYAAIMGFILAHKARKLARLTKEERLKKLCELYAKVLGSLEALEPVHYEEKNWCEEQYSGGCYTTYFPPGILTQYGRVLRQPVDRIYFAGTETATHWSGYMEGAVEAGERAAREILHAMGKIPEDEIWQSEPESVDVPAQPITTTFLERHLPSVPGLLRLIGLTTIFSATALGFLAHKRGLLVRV

Assays:
[1] = species: Homo sapiens; assay: Selectivity index, ratio of IC50 for human recombinant MAOA to IC50 for human recombinant MAOB
[2] = target: Amine oxidase [flavin-containing] B (Homo sapiens, UniProt P27338); type: cell-based, BTI-TN-5B1-4

SMILES | Ratio IC50 [1] | IC50 [2] [nM]
COc1ccc(NC(=O)c2cc3ccc(OCc4ccccc4)c(C)c3oc2=O)cc1OC | – | 4980
O=C(Nc1ccc(F)cc1)c1cc2ccccc2oc1=O | – | 67
Cc1cccc(NC(=O)c2cc3ccccc3oc2=O)c1 | – | 600
Cc1ccc(NC(=O)c2cc3ccccc3oc2=O)cc1C | 49 | 380
CSc1ccc(NC(=O)c2cc3ccccc3oc2=O)cc1 | – | 2840
CC(C)CNC(=O)c1cc2ccccc2oc1=O | > 31 | 3270
Cc1ccc(NC(=O)c2cc3ccccc3oc2=O)c(C)c1 | 0.89 | 13700
Cc1ccc(C)c(NC(=O)c2cc3ccccc3oc2=O)c1 | 0.71 | 22400
CC(C)CNC(=O)c1cc2ccc(OCc3ccccc3)cc2oc1=O | – | 9590
N#Cc1c(F)c(F)c(NC(=O)c2cc3ccc(OCc4ccc(F)cc4)cc3oc2=O)c(F)c1F | – | 3450
COc1ccc(NC(=O)c2cc3ccc(OCc4ccccc4)cc3oc2=O)cc1OC | > 23 | 4390
Cc1cccc(Cl)c1NC(=O)c1cc2ccccc2oc1=O | > 5.2 | 19100
CS(=O)(=O)c1ccc(NC(=O)c2cc3ccccc3oc2=O)cc1 | – | 1.4
Cc1ccc(NC(=O)c2cc3ccccc3oc2=O)cc1 | – | 710
O=C(Nc1c(F)c(F)c(F)c(F)c1F)c1cc2ccccc2oc1=O | > 217 | 460
CC(C)c1ccc(NC(=O)c2cc3ccc(OCc4ccccc4)cc3oc2=O)cc1 | – | 3690
O=C(Nc1cccc(F)c1)c1cc2ccccc2oc1=O | > 400 | 250

SMILES | Ratio IC50 [1] | IC50 [2] [nM]
Cc1cccc(NC(=O)c2cc3ccccc3oc2=O)c1C | 1.1 | 18300
CN(C(=O)c1cc2ccccc2oc1=O)c1ccccc1 | > 11 | 8890
Cc1cccc(Cl)c1NC(=O)c1cc2ccc(OCc3ccccc3)cc2oc1=O | – | 61500
COc1ccc(NC(=O)c2cc3ccccc3oc2=O)cc1OC | – | 860
CC(C)c1ccc(NC(=O)c2cc3ccccc3oc2=O)cc1 | – | 650
COc1cc(NC(=O)c2cc3ccc(OCc4ccc(F)cc4)cc3oc2=O)cc(OC)c1 | – | 21600
O=C(Nc1ccccc1)c1cc2ccccc2oc1=O | – | 760
COc1cc(NC(=O)c2cc3ccccc3oc2=O)cc(OC)c1 | 15 | 4180
NCCNC(=O)c1cc2ccccc2oc1=O | > 13 | 7680
CC(C)NC(=O)c1cc2ccccc2oc1=O | > 3.9 | 25400
N#Cc1c(F)c(F)c(NC(=O)c2cc3ccc(OCc4ccccc4)cc3oc2=O)c(F)c1F | 3.7 | 16500
O=C(NC1CCCCC1)c1cc2ccc(OCc3ccccc3)cc2oc1=O | > 1.5 | 64400
Cc1cccc(Cl)c1NC(=O)c1cc2ccc(OCc3ccc(F)cc3)cc2oc1=O | – | 41600
O=C(NCc1ccccc1)c1cc2ccc(OCc3ccccc3)cc2oc1=O | > 101 | 990
O=C(Nc1ccccc1Cc1ccccc1)c1cc2ccc(OCc3ccccc3)cc2oc1=O | – | 63500
O=C(O)c1ccc(NC(=O)c2cc3ccccc3oc2=O)cc1 | 8.7 | 1140
O=C(NC1CCCCC1)c1cc2ccccc2oc1=O | > 200 | 500

The next lines start with the values.

Ratio IC50 [1] | IC50 [2] [nM] | SMILES
> 400 | 250 | O=C(Nc1cccc(C(F)(F)F)c1)c1cc2ccccc2oc1=O
> 122 | 820 | COc1ccc(NC(=O)c2cc3ccccc3oc2=O)cc1
9.2 | 4520 | O=C(NNc1ccccc1)c1cc2ccc(OCc3ccccc3)cc2oc1=O
– | 3360 | COc1cc(NC(=O)c2cc3ccc(OCc4ccccc4)cc3oc2=O)cc(OC)c1
– | 860 | N#Cc1c(F)c(F)c(NC(=O)c2cc3ccccc3oc2=O)c(F)c1F
– | 9230 | O=C(Nc1c(F)cccc1F)c1cc2ccccc2oc1=O
– | 890 | CCc1ccc(NC(=O)c2cc3ccccc3oc2=O)cc1
> 156 | 640 | COc1cccc(NC(=O)c2cc3ccccc3oc2=O)c1
> 110 | 910 | O=C(Nc1ccccc1Cc1ccccc1)c1cc2ccccc2oc1=O
> 42 | 2370 | CN(C(=O)c1cc2ccc(OCc3ccccc3)cc2oc1=O)c1ccccc1
25 | 700 | Cc1cc(C)cc(NC(=O)c2cc3ccccc3oc2=O)c1
– | 2870 | COc1ccc(NC(=O)c2cc3ccc(OCc4ccc(F)cc4)cc3oc2=O)cc1OC
20 | 580 | O=C(Nc1c(F)c(F)nc(F)c1F)c1cc2ccccc2oc1=O
– | 1290 | Cc1cccc(C)c1NC(=O)c1cc2ccccc2oc1=O
